PMC4844700, “Rifampin phosphotransferase is an unusual antibiotic resistance kinase” (Nature Communications, 2016)

System: Nc1ncnc2c1ncn2[C@@H]1O[C@H](COP(=O)(O)OP(=O)(O)OP(=O)(O)O)[C@@H](O)[C@H]1O
Test: purified protein
Settings: RIF at five times its Km, 50 mM Hepes pH 7.5, 5 mM MgCl2, 40 mM NH4Cl, 25 °C, 11.3 μM enzyme

“RPH-Lm (rifampin phosphotransferase) (Listeria monocytogenes serotype 4b str. F2365)” was tested, and the Km was 8.38 ± 0.67 µM, the kcat was 2.87 s⁻¹ and the kcat/Km was 342000 M⁻¹ s⁻¹.
